# In patent publication US6413537B1, “Nystatin formulation having reduced toxicity” (Wisconsin Alumni Research Foundation, priority 2000, dated 2002):
# Tested on: erythrocytes (red blood cells)
# Settings: no nystatin, FIG. 1
substance,measurement,value
sodium deoxycholate [NADC],concentration of surfactant alone causing 50% hemolysis,about 200 μg/mL
